Structures are written as SMILES.

One assay deals with J774 macrophages. Description: Hp91-induced IL-6 secretion from macrophages after inhibitor pre-treatment. The following applies: SB 20 μM, TPCK 20 μM, DYN 80 μM, PAO 2 μM, CP 100 μM, 24 h. In kind it is cell-based, mouse.
The subject of a further assay is Immature human DCs. Briefly: Peptide binding/uptake by flow cytometry. The following applies: 30 minutes pre-treatment; PAO 2 μM, CP 100 μM, NY 20 μM, AM 2 mM.

Consider `O=[As]c1ccccc1` (centres unmarked), for which, in the assay with J774 macrophages, the “effect of inhibitor pre-treatment on Hp91-induced IL-6 secretion” value is given as “significant reduction”. Further, in the assay on Immature human DCs, the “effect of inhibitor pre-treatment on uptake of biotinylated Hp91” value is “significantly reduced”.

For the origin of these results see patent US9539321B2, “HMGB1-derived peptides enhance immune response to antigens” (The Regents of the University of California, priority 2010, dated 2017).
